# Data as given in paper PMC6895048, “4,5-Disubstituted 1,2,3-triazoles: Effective Inhibition of Indoleamine 2,3-Dioxygenase 1 Enzyme Regulates T cell Activity and Mitigates Tumor Growth” (Scientific Reports, 2019).
# Protein sequences, listed by entry. Tags and fused reporters are not part of them.
# UniProt P14902, whole entry: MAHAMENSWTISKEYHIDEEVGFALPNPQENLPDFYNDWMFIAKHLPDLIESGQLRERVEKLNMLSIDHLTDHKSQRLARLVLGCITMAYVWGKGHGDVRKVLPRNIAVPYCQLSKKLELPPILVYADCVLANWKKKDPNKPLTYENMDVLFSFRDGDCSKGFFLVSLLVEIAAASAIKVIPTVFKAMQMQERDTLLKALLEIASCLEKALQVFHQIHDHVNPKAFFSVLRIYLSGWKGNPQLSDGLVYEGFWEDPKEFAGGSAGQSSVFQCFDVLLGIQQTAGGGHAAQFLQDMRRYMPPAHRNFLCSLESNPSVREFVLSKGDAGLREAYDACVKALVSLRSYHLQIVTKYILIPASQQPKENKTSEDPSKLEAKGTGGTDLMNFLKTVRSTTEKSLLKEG
# UniProt P48775, whole entry: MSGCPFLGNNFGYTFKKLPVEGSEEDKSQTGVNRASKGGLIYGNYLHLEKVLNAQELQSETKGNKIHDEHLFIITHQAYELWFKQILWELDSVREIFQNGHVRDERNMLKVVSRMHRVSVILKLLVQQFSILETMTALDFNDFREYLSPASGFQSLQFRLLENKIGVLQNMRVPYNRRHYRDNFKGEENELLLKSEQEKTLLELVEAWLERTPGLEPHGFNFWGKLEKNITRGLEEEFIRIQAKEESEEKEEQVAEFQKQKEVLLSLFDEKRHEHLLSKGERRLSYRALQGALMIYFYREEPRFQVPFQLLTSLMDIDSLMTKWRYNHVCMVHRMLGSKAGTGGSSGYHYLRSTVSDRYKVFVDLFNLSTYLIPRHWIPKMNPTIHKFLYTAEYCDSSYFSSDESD
# How the values were obtained:
# [1] = target: purified human IDO1 enzyme (Homo sapiens, UniProt P14902); test: IDO1 inhibition assay by the spectrometric method (pDMAB); type: biochemical; conditions: read-out: hIDO1 IC50, spectrophotometric, mean of three independent assays
# [2] = target: purified human TDO enzyme (Homo sapiens, UniProt P48775); test: TDO inhibition assay by the spectrometric method; conditions: spectrophotometric
# [3] = target: T1, IDO1 (Homo sapiens, UniProt P14902); test: Cellular IDO1 activity assay in IFN-γ induced MDA-MB-231 cells; type: cell-based; conditions: read-out: MDA-MB-231 cells EC50; IDO1 expression induced by human IFN-γ (50 ng/mL); mean of three
# [4] = target: T1, IDO1; test: Kynurenine assay by HPLC analysis, IDO1; conditions: for % Of inhibition for IDO1 enzyme: HPLC
# [5] = target: TDO enzyme (Homo sapiens, UniProt P48775); test: HPLC based TDO inhibition assay
structure (smiles),measurement,setting,value
Nc1ccccc1NC(=O)c1n[nH]nc1-c1ccc(Cl)c(Cl)c1,IC50,[1],2010 nM
O=C(Nc1ccccc1)c1n[nH]nc1-c1ccc(Cl)c(Cl)c1,IC50,[1],19400 nM
Nc1ccccc1NC(=O)c1n[nH]nc1-c1ccc(F)c(F)c1,% of Enzyme inhibition (TDO),[2]; 32 nM,4%
same,% of Enzyme inhibition (TDO),[2]; 160 nM,6%
same,% of Enzyme inhibition (TDO),[2]; 800 nM,7%
same,% of Enzyme inhibition (TDO),[2]; 4 µM,26%
same,% of Enzyme inhibition (TDO),[2]; 20 µM,31%
same,% of Enzyme inhibition (TDO),[2]; 100 µM,36%
same,EC50,[3],182 nM
same,IC50,[1],271 nM
same,IC50,[4]; HPLC based IDO1 inhibition assay,172 nM
same,% Of inhibition for IDO1 enzyme,[4]; 32 nM,20%
same,% Of inhibition for IDO1 enzyme,[4]; 160 nM,48%
same,% Of inhibition for IDO1 enzyme,[4]; 800 nM,79%
same,% Of inhibition for IDO1 enzyme,[4]; 4 µM,84%
same,% Of inhibition for IDO1 enzyme,[4]; 20 µM,86%
same,% Of inhibition for IDO1 enzyme,[4]; 100 µM,88%
same,% Of inhibition for TDO enzyme,[5]; 32 nM,9%
same,% Of inhibition for TDO enzyme,[5]; 160 nM,19%
same,% Of inhibition for TDO enzyme,[5]; 800 nM,33%
same,% Of inhibition for TDO enzyme,[5]; 4 µM,56%
same,% Of inhibition for TDO enzyme,[5]; 20 µM,64%
same,% Of inhibition for TDO enzyme,[5]; 100 µM,70%
